Reference: patent US5985885A, “Quinazoline-4-amino-2-(piperidine-1-yl-4-substituted) derivatives having antihypertensive activity, a method for their preparation and their pharmaceutical use” (priority 1996, dated 1999)

By UniProt entry, the sequences of proteins in these tests, tags left out. Residues count along the entry.
UniProt P43140, whole entry: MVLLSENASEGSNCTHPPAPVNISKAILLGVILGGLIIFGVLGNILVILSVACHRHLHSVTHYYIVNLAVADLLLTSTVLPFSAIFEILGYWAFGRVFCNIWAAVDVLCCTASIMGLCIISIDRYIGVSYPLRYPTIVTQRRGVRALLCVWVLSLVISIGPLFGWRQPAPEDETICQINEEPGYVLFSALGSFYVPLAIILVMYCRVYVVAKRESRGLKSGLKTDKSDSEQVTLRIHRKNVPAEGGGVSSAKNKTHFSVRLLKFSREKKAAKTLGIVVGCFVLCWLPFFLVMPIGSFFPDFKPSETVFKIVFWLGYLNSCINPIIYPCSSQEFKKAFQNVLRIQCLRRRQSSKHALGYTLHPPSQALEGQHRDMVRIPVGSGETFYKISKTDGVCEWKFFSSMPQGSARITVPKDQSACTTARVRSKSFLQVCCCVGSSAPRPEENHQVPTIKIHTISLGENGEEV
UniProt G1SYA7, 1-469: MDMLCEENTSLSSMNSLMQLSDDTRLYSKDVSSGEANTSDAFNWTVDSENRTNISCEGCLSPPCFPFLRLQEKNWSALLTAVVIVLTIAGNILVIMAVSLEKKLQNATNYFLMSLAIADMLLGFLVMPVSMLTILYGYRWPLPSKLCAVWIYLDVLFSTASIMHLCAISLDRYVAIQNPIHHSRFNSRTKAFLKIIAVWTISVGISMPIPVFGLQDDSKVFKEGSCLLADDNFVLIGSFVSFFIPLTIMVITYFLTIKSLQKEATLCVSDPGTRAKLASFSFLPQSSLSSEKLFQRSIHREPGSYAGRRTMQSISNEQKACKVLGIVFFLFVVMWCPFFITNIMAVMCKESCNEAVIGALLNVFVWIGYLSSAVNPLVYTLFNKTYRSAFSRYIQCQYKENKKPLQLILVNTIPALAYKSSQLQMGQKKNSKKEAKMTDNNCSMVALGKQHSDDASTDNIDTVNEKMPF
UniProt P15823, whole entry: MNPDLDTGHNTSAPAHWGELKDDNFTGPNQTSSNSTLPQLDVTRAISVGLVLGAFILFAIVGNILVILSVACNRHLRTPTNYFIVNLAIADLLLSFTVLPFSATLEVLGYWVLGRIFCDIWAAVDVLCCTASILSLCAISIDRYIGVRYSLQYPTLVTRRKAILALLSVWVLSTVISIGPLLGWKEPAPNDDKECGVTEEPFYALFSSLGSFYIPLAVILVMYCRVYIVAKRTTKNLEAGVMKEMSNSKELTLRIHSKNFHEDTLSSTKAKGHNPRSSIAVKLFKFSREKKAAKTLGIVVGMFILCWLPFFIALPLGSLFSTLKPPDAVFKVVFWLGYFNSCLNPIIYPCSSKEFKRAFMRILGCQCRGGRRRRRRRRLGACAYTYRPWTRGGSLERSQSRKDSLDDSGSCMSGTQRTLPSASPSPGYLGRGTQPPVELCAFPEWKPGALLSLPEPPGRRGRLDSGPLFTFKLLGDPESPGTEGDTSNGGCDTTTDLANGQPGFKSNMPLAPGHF

How the values were obtained:
[1] = target: alpha1A adrenergic receptor (rat GSM) (Rattus norvegicus, UniProt P43140); test: [3H]-prazosin binding in rat submaxillary glands (GSM); details: read-out: Inhibition of the binding of [3H]-prazosin IC50, alpha1A subtype, pH 7.4, 45 min, 25° C., tested form: HCl
[2] = target: alpha1A + alpha1C adrenergic receptor (human prostate); test: [3H]-prazosin binding in human prostate; details: read-out: Inhibition of the binding of [3H]-prazosin IC50, alpha1A + alpha1C subtype, pH 7.5, 30 min, 25° C., tested form: HCl
[3] = target: 5-HT2 receptors (isolated rabbit aorta) (Oryctolagus cuniculus, UniProt G1SYA7); test: Antagonism of serotonin-induced contraction of isolated rabbit aorta; details: 37° C., compound 10 min before agonist, limits (p < 0.05), tested form: HCl
[4] = tested on: anaesthetised normotensive rat; test: Hypotensive activity in the anaesthetised normotensive rat (IV); type: in vivo; details: IV bolus, tested form: HCl
[5] = target: alpha1B adrenergic receptor (rat liver) (Rattus norvegicus, UniProt P15823); test: [3H]-prazosin binding in rat liver; details: read-out: Inhibition of the binding of [3H]-prazosin IC50, alpha1B subtype, tested form: HCl

COc1cc2nc(N3CCC(c4cccc5ccccc45)CC3)nc(N)c2cc1OC
IC50 [1]: 0.088 µM
IC50 [2]: > 0.1 µM
Inhibitory effect (IC50) on the contraction caused by 0.3 μM serotonin [3]: > 50 µg/mL
Reduction in mean arterial pressure ED30 ([4]; interval 0-30 min): 1.00 mg/kg
Reduction in mean arterial pressure ED30 ([4]; interval 30-60 min): 1.83 mg/kg
IC50 [5]: 0.062 µM
